Test results published in paper PMC6917776, “Discovery of a chemical probe for PRDM9” (Nature Communications, 2019).

Target: T1, Biotinylated PRDM9 (amino acids 195–415) (Homo sapiens, UniProt Q9NQV7)
T1 construct: Biotinylated PRDM9 (amino acids 195–415)
T1 sequence (Q9NQV7 195-415): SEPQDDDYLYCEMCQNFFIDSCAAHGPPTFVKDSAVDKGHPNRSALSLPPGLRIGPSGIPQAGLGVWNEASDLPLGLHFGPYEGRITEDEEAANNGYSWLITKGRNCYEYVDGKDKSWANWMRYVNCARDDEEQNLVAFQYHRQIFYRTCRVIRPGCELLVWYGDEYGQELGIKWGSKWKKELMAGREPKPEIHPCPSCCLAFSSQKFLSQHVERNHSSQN
Assay: Surface plasmon resonance (SPR) binding
Conditions: in the presence of 350 µM SAM
Experimental: Fig. 2 Orthogonal confirmation of MRK-740 binding to PRDM9. Binding affinity of MRK-740 was determined using SPR in the presence of 350 µM SAM (5xKm SAM, 70 ± 10 µM). a A representative sensorgram (solid green) is shown with the kinetic fit (black dots). […] Biotinylated PRDM9 (amino acids 195–415) was immobilized on the flow cell of a SA sensor chip in 1x HBS-EP buffer, yielding 5700 RU. Using the buffer with 0.5% DMSO, 350 µM SAM and single cycle kinetic with 60 s contact time and a dissociation time of 120 s at a flow rate of 75 µL/min. MRK-740 was tested at 1 µM as the highest concentration with dilution factor of 0.33 for five tested concentrations. c Binding and selectivity of MRK-740 against PRDM family members were tested by DSF as described in Methods. Only binding to PRDM9 and PRDM7 with ∆Tm of higher than 2 °C was observed. Mechanism of action of MRK-740 was also evaluated by determining the IC50 values (d) in the presence of fixed peptide (20 μM) and varying SAM concentrations as well as (e) fixed concentration of SAM (350 µM) and varying concentrations of peptide. […] All (c–e) experiments were performed in triplicate (n = 3) and data points are presented as average ± standard deviation. Source data are provided as a Source Data file.
Binding studies by SPR were performed using a Biacore T200 (GE Health Sciences Inc.) at 20 °C. […]

COc1cc(OC)cc(-c2noc(N3CCN(C)C4(CCN(c5ccnc(C)c5)CC4)C3)n2)c1 [MRK-740]
koff: 0.1 ± 0.01 s⁻¹
